Test results as given in patent publication US20240239799A1, “(S)-1-(5-((PYRIDIN-3-YL)THIO)PYRAZIN-2-YL)-4'H,6'H-SPIRO[PIPERIDINE-4,5'-PYRROLO [1,2-B]PYRAZOL]-4'-AMINE DERIVATIVES AND SIMILAR COMPOUNDS AS SHP2 INHIBITORS FOR THE TREATMENT OF E.G. CANCER” (C.N.C.C.S. S.C.A.R.L. COLLEZIONE NAZIONALE DEI COMPOSTI …, priority 2021, published 2024).

What was measured:
[1] = molecular target: T1, SHP2 (Avi-G4SG4S-PTPN11(1-525)) (Homo sapiens, UniProt Q06124); test: Binding kinetic assay by surface plasmon resonance (SPR); conditions: Biacore T200, single cycle kinetic, 1:1 Langmuir binding model; for koff: triplicate
T1 construct: (Avi-G4SG4S-PTPN11(1-525)); purchased Viva Biotech Ltd
Method: A binding assay for measuring SHP2 inhibitors binding kinetic was developed using a Biacore T200 Instrument (Cytiva, Sweden). […] Data analysis was performed by Biacore T200 Evaluation software (Cytiva), and kinetic parameters were evaluated by a global fitting according to a 1:1 Langmuir binding model. Each molecule was tested in triplicate on separate flow channels.

[2] = molecular target: T2, SHP-2 enzyme (Met1-Leu525) (Homo sapiens, UniProt Q06124); test: SHP2 inhibition enzymatic assay (DiFMUP substrate, IRS1 peptide activation); assay type: biochemical; conditions: 0.5 nM SHP-2, 500 nM IRS1 peptide, 75 μM DiFMUP; read-out: SHP2wt - IC50
T2 construct: synthetized by Origene, Met1-Leu525, cat #TP750155; purchased Origene TP750155
Method: The assay was performed as described in YP Chen et al, Nature (535)2016. Assay volume of 20 μL/well was assembled in 384 well black polystyrene low-binding microplates (Greiner), using the following buffer: 60 mM HEPES pH 7.2, 75 mM NaCl, 75 mM KCl, 1 mM EDTA pH 8, 0.05% tween-20, 5 mM DTT. The SHP-2 enzyme (synthetized by Origene, Met1-Leu525, cat #TP750155) was used at a final concentration of 0.5 nM. The enzyme was activated by 500 nM IRS1 peptide (sequence: H2N-LN(pY)IDLDLV(dPEG8)LST(pY)ASINFQK-amide SEQ ID No. 1) and incubated with 75 μM DiFMUP (Sigma) as substrate.
Briefly, DMSO serially diluted testing compounds were transferred to the bottom of the assay plate. SHP2 was then added together with the IRS1 peptide 30 min post incubation, the DiFMUP substrate was added to the reaction and incubated 30 min at rt. Finally 5 μL of 160 μM bpV (Potassium bisperoxo[1,10-phenanthroline]oxovanadate[V], Sigma) were added to stop and quench the reaction. The fluorescence was detected by a microplate reader (Envision, PerkinElmer) according to the DiFMUP excitation and emission wavelength. The lower the fluorescence the higher the SHP2 inhibition.
The activity of each compound dilution was calculated as percentage of inhibition between vehicle (DMSO, 0% inhibition) and no enzyme (100% inhibition). […]

Compound	Residence time 1/koff SPR [1] [s]	koff [1] [s⁻¹]	IC50 [2] [µM]
Cc1cn2ccc(Sc3cnc(N4CCC5(CC4)Cn4nccc4[C@H]5N)cn3)c(Cl)c2n1 [Example 43, (S)-1-(5-((8-chloro-2-methylimidazo[1,2-a]pyridin-7-yl)thio)pyrazin-2-yl)-4′H,6′H-spiro[piperidine-4,5′-pyrrolo[1,2-b]pyrazol]-4′-amine]	18149	5.51e-05	≤ 0.05
Nc1nc(N2CCC3(CC2)Cn2nccc2[C@H]3N)cnc1Sc1ccn2ccnc2c1Cl [Example 44, (S)-1-(6-amino-5-((8-chloroimidazo[1,2-a]pyridin-7-yl)thio)pyrazin-2-yl)-4′H,6′H-spiro[piperidine-4,5′-pyrrolo[1,2-b]pyrazol]-4′-amine]	15152	6.6e-05	≤ 0.05
